PubChem BioAssay AID434970 (Sanford-Burnham Center for Chemical Genomics, 2010)
Only a part is listed here, and it is no random draw. Calls of active or inactive are those of the source. Cut-off read from the data, not from the text of the source: active = activity change below about -85%; inactive = the rest.

The compounds below were run on intestinal alkaline phosphatase [Mus musculus] (assay: activators of mouse IAP, confirmation, biochemical, luminescence, single concentration (AID 434970)). Conditions: purified mouse IAP, CDP-Star luminescence, 30 min; at 10 µM; hits give low values.

Row | SMILES | activity change, negative = activation
1 | C[N+]1=C2C=CC=CC=C2SC12C([N+](=O)[O-])=CC([N+](=O)[O-])=C[C-]2[N+](=O)[O-] (centres undefined) | inactive: 74.9%
2 | O=[N+]([O-])c1cc([N+](=O)[O-])c(-c2ccn[nH]2)s1 | inactive: 68.5%
3 | O=C(COc1ccccc1)OC1CN2CCC1CC2 (centres undefined) | inactive: 14.2%
4 | O=P1(Nc2ccccn2)COc2ccccc2OC1 | inactive: -6.55%
